Experimental data: ChEMBL document CHEMBL1155460, “Prediction of acetylcholinesterase inhibitors and characterization of correlative molecular descriptors by machine learning methods” (Eur J Med Chem, 2010)
pIC50: −log10 of the molar value.

Chains of the proteins cited; added tags and fusions are not shown. Residues count along the entry.
UniProt P22303, 32-614 limits assumed: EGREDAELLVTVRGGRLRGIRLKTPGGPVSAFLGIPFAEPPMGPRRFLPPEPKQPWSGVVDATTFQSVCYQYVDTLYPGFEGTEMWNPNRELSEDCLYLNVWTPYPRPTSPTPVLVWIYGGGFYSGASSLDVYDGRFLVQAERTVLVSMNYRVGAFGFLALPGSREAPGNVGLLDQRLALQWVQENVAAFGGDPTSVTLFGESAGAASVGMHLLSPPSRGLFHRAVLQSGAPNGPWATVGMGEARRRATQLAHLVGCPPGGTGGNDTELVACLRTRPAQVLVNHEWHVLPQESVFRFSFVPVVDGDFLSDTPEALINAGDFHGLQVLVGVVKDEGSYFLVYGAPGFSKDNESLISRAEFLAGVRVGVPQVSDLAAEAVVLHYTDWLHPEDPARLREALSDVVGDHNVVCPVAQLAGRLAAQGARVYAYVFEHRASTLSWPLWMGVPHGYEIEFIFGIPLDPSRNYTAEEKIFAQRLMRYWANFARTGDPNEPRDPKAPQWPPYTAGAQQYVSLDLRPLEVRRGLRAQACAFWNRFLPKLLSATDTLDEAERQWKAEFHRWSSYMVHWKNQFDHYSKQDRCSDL

Target: Acetylcholinesterase (Homo sapiens, UniProt P22303)

Structure (SMILES): C/C(=N\O)c1ccc(Cl)c(NC(=O)c2c(-c3ccccc3Cl)noc2C)c1
- pIC50: 5.17
